{
  "source": "patent US7419481B2",
  "about": "“Apparatus and method for piercing skin with microprotrusions” (ALZA Corporation, priority 2001, dated 2008)",
  "key": {"[1]": {"conditions": "360 μm microprotrusions, 2 cm^2, 8 mm skin biopsy, fluorimetry"}, "[2]": {"conditions": "impact applicator 0.2 J/cm^2 in less than 10 msec vs 2 kg/cm^2 manual pressure; 5 seconds and 1 hour contact; 214 μm microprojections; FIG. 7"}},
  "note": "Like-named read-outs stand apart in the source and are kept apart here.",
  "data": [
    {"substance": "ovalbumin", "values": [
      {"measurement": "total amount of ovalbumin delivered into the skin (average)", "setting": "[1]; impact applicator, 0.42 J in less than 10 msec, system removed after 5 seconds", "value": 30.1, "unit": "µg"},
      {"measurement": "total amount of ovalbumin delivered into the skin (average)", "setting": "[1]; manual application, 2 kg/cm^2 pressure held 5 seconds", "value": 6.6, "unit": "µg"},
      {"measurement": "amount of ovalbumin delivered (M), impact vs manual application", "setting": "[2]", "value": "higher delivery following impact applciation as compared to manual application"}
    ]}
  ]
}
